Results taken from ChEMBL document CHEMBL5244269, “Improving metabolic stability and removing aldehyde oxidase liability in a 5-azaquinazoline series of IRAK4 inhibitors” (Bioorg Med Chem, 2020).

Key:
Homo sapiens [1] = species: Homo sapiens; experiment: Selectivity index, ratio of IC50 for inhibition of FLT3 (unknown origin) to IC50 for inhibition of IRAK4 (unknown origin)
Homo sapiens [2] = species: Homo sapiens; experiment: Selectivity index, ratio of IC50 for inhibition of TRKB (unknown origin) to IC50 for inhibition of IRAK4 (unknown origin)
Homo sapiens [3] = species: Homo sapiens; experiment: Selectivity index, ratio of IC50 for inhibition of TRKC (unknown origin) to IC50 for inhibition of IRAK4 (unknown origin)
Homo sapiens [4] = species: Homo sapiens; experiment: Selectivity index, ratio of IC50 for inhibition of BTK (unknown origin) to IC50 for inhibition of IRAK4 (unknown origin)
Homo sapiens [5] = species: Homo sapiens; experiment: Selectivity index, ratio of IC50 for inhibition of IRAK1 (unknown origin) to IC50 for inhibition of IRAK4 (unknown origin)
Homo sapiens [6] = species: Homo sapiens; experiment: Selectivity index, ratio of IC50 for inhibition of TRKA (unknown origin) to IC50 for inhibition of IRAK4 (unknown origin)
Homo sapiens [7] = species: Homo sapiens; experiment: Selectivity index, ratio of IC50 for inhibition of PI3Kdelta (unknown origin) to IC50 for inhibition of IRAK4 (unknown origin)

SMILES: Cc1ncc(-c2nc3c(NC(C)C)nc(Nc4cnn(C5CC6(C5)CN(C)C6)c4)nc3cc2F)cn1
- Ratio IC50 (Homo sapiens [1]): 750
- Ratio IC50 (Homo sapiens [2]): 470
- Ratio IC50 (Homo sapiens [3]): 290
- Ratio IC50 (Homo sapiens [4]): > 1000
- Ratio IC50 (Homo sapiens [5]): 600
- Ratio IC50 (Homo sapiens [6]): 240
- Ratio IC50 (Homo sapiens [7]): 120

SMILES: Cc1ncc(-c2nc3c(OC4(C)CC4)nc(Nc4cnn(C5CCN(C)CC5)c4)nc3cc2F)cn1
- Ratio IC50 (Homo sapiens [1]): > 1000
- Ratio IC50 (Homo sapiens [2]): 250
- Ratio IC50 (Homo sapiens [3]): 90
- Ratio IC50 (Homo sapiens [4]): > 1000
- Ratio IC50 (Homo sapiens [5]): 380
- Ratio IC50 (Homo sapiens [6]): 90
- Ratio IC50 (Homo sapiens [7]): 18
